{"source": "paper PMC7017353", "about": "“Delineating the Molecular Basis of the Calmodulin–bMunc13-2 Interaction by Cross-Linking/Mass Spectrometry—Evidence for a Novel CaM Binding Motif in bMunc13-2” (Cells, 2020)", "target": "T1, calmodulin (CaM) (Homo sapiens, UniProt P0DP23)", "T1 construct": "photo-Met label (partial metabolic replacement of Met by the diazirine analogue photo-methionine); made in house; host or cells: E. coli", "experiment": "Surface plasmon resonance (SPR), immobilised biotinylated CaM", "format": "binding", "conditions": "biotinylated photo-Met-labeled CaM on streptavidin/PEG-biotin chip, peptide 0.1, 0.5 and 1 µM, 20 mM HEPES, 230 mM NaCl, 0.5 mM TCEP pH 7.2, TraceDrawer"}
{"substance": "703KLSLEQVCAETIYLNKCINNDKNVLREKRLRQKKLLQELV742 [Segment F723D, segment-C variant with F723 exchanged to aspartic acid]", "values": [{"measurement": "KD", "result": "could not be derived"}]}
